Test [1] has as its target ShhN^1-198-HA (mouse) (UniProt Q62226). The test is described as follows: anti-HA immunoprecipitation from HEK293T lysate, label-free quantitative mass spectrometry; 2 unique peptides; untransfected Control Group printed 156239.4744.
In test [2] the target is IGF2-HA (human) (UniProt P01344). The description is as above.
Test [3] addresses ShhN^1-198-HA (mouse) (UniProt Q62226). Put plainly: anti-HA immunoprecipitation from HEK293T lysate, label-free quantitative mass spectrometry; ratio of the ShhN-HA group to the IGF2-HA group.

This note sets out measurements from US20250243243A1, “DISRUPTION OF SONIC HEDGEHOG-SURF4 INTERACTION FOR CANCER TREATMENT” (The Hong Kong University of Science and Technology, priority 2022, published 2025).

In test [1], RPS15A (from UniProt P62244) came in with an abundance in The ShhN Group of 293000. Also, the abundance in The IGF2 Group in test [2] was 61200. Besides, in test [3], the Abundance Ratio ShhN:IGF2 is 4.79.
